Target: human ghrelin receptor (GRLN, growth hormone secretagogue receptor, hGHS-R1a) (Homo sapiens, UniProt Q92847)
Assay: Competitive radioligand binding assay (ghrelin receptor), Method B1
Details: Ghrelin receptor binding activity

Sequences of proteins named here, by UniProt entry; tags and fusion partners are left off.
UniProt Q92847, whole entry: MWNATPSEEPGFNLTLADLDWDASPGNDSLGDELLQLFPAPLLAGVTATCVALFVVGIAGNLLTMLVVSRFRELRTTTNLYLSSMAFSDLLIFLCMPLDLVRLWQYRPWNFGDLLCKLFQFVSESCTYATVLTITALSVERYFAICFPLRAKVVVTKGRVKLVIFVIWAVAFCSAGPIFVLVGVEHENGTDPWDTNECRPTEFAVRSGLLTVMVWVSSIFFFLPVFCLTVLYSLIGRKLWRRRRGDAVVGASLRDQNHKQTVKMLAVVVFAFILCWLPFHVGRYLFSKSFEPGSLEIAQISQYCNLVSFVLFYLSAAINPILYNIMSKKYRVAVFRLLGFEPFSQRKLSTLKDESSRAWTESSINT

| IC50 | Compound |
| --- | --- |
| 10 to 100 nM | CC(O)[C@H]1C(=O)N[C@H](Cc2c[nH]c3ccccc23)C(=O)NC2CCC(C2)c2ccccc2OCCN[C@@H](C2(C)CC2)C(=O)N1C (single isomer, unassigned) |
| 100 to 500 nM | CC[C@@H]1CCc2cccnc2OCCN[C@@H](C2(C)CC2)C(=O)N(C)[C@@H](C(C)O)C(=O)N[C@H](Cc2ccccc2)C(=O)N1 (single isomer, unassigned) |

Source: patent US20110105389A1 (priority 2009, published 2011)
